{
  "source": "patent US6747008B1",
  "about": "“Methods for treating and preventing alopecia” (University of Southern California, priority 2000, dated 2004)",
  "origin": "cited, not measured here",
  "target": "T1, AT2 receptor (Homo sapiens, UniProt P50052)",
  "T1 sequence (P50052 1-363)": "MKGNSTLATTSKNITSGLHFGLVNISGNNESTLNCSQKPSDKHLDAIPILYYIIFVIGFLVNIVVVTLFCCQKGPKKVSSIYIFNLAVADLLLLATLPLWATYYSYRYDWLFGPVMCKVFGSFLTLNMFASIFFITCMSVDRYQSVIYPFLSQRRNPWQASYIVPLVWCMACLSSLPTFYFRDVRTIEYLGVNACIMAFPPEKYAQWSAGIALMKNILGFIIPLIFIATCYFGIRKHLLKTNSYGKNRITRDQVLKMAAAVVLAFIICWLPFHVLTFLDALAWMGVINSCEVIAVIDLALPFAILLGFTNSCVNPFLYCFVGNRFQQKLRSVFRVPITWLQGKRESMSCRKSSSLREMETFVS",
  "details": "experimental models tested; cited from earlier work",
  "data": [
    {"substance": "Asp-Arg-Val-Tyr-Ile-Xaa-Pro-Phe [p-aminophenylalanine6-AII]", "values": [
      {"measurement": "binding characteristics", "value": "comparable to AT2 antagonists"}
    ]}
  ]
}
